## Binding of CDR-mutated scFvs to a peptide of the spike HR2 region

Binding partner: SARS-CoV-2 spike HR2 peptide, sequence PDVDLGDISGINAS.

Parent scFv Ab-14: VH joined to VL by three GGGGS repeats. Changes lie in the light chain CDRs alone.
VH: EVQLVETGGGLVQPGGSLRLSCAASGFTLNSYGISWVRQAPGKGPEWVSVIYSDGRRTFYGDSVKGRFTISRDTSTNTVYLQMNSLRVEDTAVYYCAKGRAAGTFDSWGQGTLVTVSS
VL: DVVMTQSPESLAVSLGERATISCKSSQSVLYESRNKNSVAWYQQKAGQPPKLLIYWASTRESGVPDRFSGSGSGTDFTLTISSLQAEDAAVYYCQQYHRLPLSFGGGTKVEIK

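Phage display of a naive human antibody library on the peptide gave the parent. AAYL50 was designed without a model: most single CDR substitutions and a random sample of double and triple ones. The assay is AlphaSeq: two haploid yeast populations carry antibody and antigen on their surface. Binding brings cells together so that they mate, and sequencing counts the barcode pairs among the diploids. A regression on co-assayed BCL2-family reference pairs converts the normalised counts of each replicate to an apparent Kd. The assay was run in three technical replicates.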

Substitutions are numbered in sequence along the VL above, starting at 1 (not Kabat).
Every variant below is changed at S58 of the VL (sequential numbering).
The Kd shown is the geometric mean over detected replicates; a lower Kd is a better binder.
A pair that was not seen in any replicate is written "nd"; this usually means weak binding, but a binder can also be missed.
Three control strains display no target. For library AAYL50, 18% of the pairings with them gave a signal, with a median of 15 µM and one signal in twenty below 970 nM, so weak values seen in few replicates may be background.

With Q27A+S58H+Y97M the result was 150 µM (3 of 3 replicates). With S58K+L102H the result was nd (0 of 3 replicates). For S38C+S58N+L102F, the assay gave 240 nM (3 of 3 replicates). With S58R the result was 150 nM (3 of 3 replicates). With N37K+S58G+P101Y the result was nd (0 of 3 replicates). Variant A57D+S58Q+S103C gave 15 µM (1 of 3 replicates).

Variant S25P+S58E+L102H showed 10 nM (3 of 3 replicates). Variant V29W+S58R+S103R showed 8.7 µM (3 of 3 replicates). Variant K24V+A57E+S58T showed 130 µM (2 of 3 replicates). For E32R+V39C+S58K, the assay gave 6.9 µM (1 of 3 replicates). Variant L30Q+S58C+P101F showed 2.5 µM (1 of 3 replicates). With S26V+A40L+S58C the result was 230 nM (1 of 3 replicates).

Variant E32R+S58I showed nd (0 of 3 replicates). With R34Y+S58F+H98D the result was 250 nM (3 of 3 replicates). For S33I+S58F+P101C, the assay gave 11 µM (1 of 3 replicates). Variant V29L+S58H+T59R showed 87 nM (3 of 3 replicates). With L30F+S58A+Q96K the result was nd (0 of 3 replicates). Variant E32R+S58W+Y97Q showed nd (0 of 3 replicates).

Variant S58H+E61F+H98Y showed nd (0 of 3 replicates). For S26P+S58Y, the assay gave 150 nM (3 of 3 replicates). Variant S28Q+S33C+S58C gave nd (0 of 3 replicates). With K24M+S58D+S103V the result was 22 nM (3 of 3 replicates). For N35P+S58K+R60A, the assay gave 1.1 mM (1 of 3 replicates). For S58L+E61G+S103D, the assay gave nd (0 of 3 replicates).

Variant E32Y+R34P+S58G gave 220 nM (3 of 3 replicates). With V39E+S58Q+L102H the result was 3.0 µM (1 of 3 replicates). Variant S58C+T59I+Y97L gave 13 µM (3 of 3 replicates). With S38V+S58W the result was nd (0 of 3 replicates). Variant S58F+R60Y+L102F gave 230 nM (1 of 3 replicates). For K24H+S58G, the assay gave 21 µM (2 of 3 replicates).

For R34C+S58M, the assay gave 160 nM (3 of 3 replicates). Variant R34I+S58Q+L100G gave nd (0 of 3 replicates).

Again, the first 2 entries without any signal:

changes	apparent Kd	replicates with signal
S58K+L102H	nd	0/3
N37K+S58G+P101Y	nd	0/3

Source: Engelhart et al. 2022 (doi:10.1038/s41597-022-01779-4), MIT Lincoln Laboratory and A-Alpha Bio; data file from the FLAb repository.